Experimental data: patent publication US11612667B2, “Enhanced in vivo targeting of radiolabelled peptides with the means of enzyme inhibitors” (Advanced Accelerator Applications USA, Inc., priority 2011, dated 2023)

Tests used:
[1] = parameters: species or system Swiss albino mice; settings: mouse, in vivo, 5 min
Protocol: Whole blood was collected 5 min postinjection (pi), blood cells were removed and major proteins were precipitated and then the supernatant was analyzed by RP-HPLC coupled to a gamma detector.
Alternatively, the dual NEP and ACE inhibitor racecadotril (race; 2.5 mg) was ip injected 45-60 min prior to radioligand injection and the same procedure was followed as described above.
To test the in vivo stability, ^111In-DOTA-MG11 was injected in the tail vein of Swiss albino mice and 5 min afterwards blood was collected, blood cells were removed and major proteins were precipitated and then the supernatant was analyzed by RP-HPLC coupled to a gamma detector. As shown in the radiochromatogram of FIG. 3A, the major part of ^111In-DOTA-MG11 was consumed during this period (<5% intact peptide still detected), in agreement with previous reports. […]
For ex vivo blood analysis, [^99mTc]Demotensin 6 was injected in the tail vein of Swiss albino mice and blood collected 5 min thereafter was analyzed as previously described. […]
Additional groups of radiopeptides with relevance for nuclear medicine applications have been studied for their in vivo stability. […] Blood was collected 5 min afterwards, and analyzed by RP-HPLC after suitable preparation, as previously described.

[2] = tested on: human prostate adenocarcinoma PC-3 xenografts (GRPR+); parameters: species or system SCID mice; settings: SCID, mouse, in vivo, 4 h
Protocol: FIG. 6C: Biodistribution of [^99mTc]SAR-NC1 in SCID mice bearing human prostate adenocarcinoma PC-3 xenografts (GRPR^+) at 4 h pi.
In FIG. 6B and FIG. 7B, the biodistribution of [^99mTc]SAR-NC1 and [^99mTc]SAR-NC6 in SCID mice bearing human prostate adenocarcinoma PC-3 xenografts (GRPR^+) at 4 h respectively, after injection of the radioligand alone or with co-injection of PA (300 μg) are shown.
It is interesting to note that with co-injection of the blocker and PA tumor values were minimal (0.69±0.03% ID/g) showing that PA provoked a GRPR-mediated increase in tumor uptake.
The effect of PA-induced stabilization of [^99mTc]Demobesin 1 on tumor uptake is illustrated in FIG. 10B, showing the biodistribution at 4 h pi after injection of [^99mTc]Demobesin 1 in SCID mice bearing human PC-3 xenografts (GRPR^+) (control), or with PA (300 μg).

For CSCC[C@H](NC(=O)[C@H](CC(C)C)NC(=O)[C@H](Cc1c[nH]cn1)NC(=O)CN(C)C(=O)[C@@H](NC(=O)[C@H](C)NC(=O)[C@H](Cc1c[nH]c2ccccc12)NC(=O)[C@H](Cc1c[nH]cn1)NC(=O)[C@H](CC(N)=O)NC(=O)CNC(=O)C(CNCCN)CNCCN)C(C)C)C(N)=O [[^99mTc]SAR-NC6, ^99mTc-N4-Gly-Asn-His-Trp-Ala-Val-Sar-His-Leu-Met-NH2, metal not drawn], the “percentage of parent peptide remaining intact” value [1] was 35% and the “uptake in PC-3 tumor” value [2] was 9.22±1.40 % ID/g.
